The values that follow come from ChEMBL document CHEMBL4673405, “Novel Linker Variants of Antileishmanial/Antitubercular 7-Substituted 2-Nitroimidazooxazines Offer Enhanced Solubility” (ACS Med Chem Lett, 2021).

Each structure is given as a SMILES string.

The test system of this assay is Leishmania infantum. Briefly: Antileishmanial activity against Leishmania infantum MHOM/MA(BE)/67 amastigotes infected in mouse peritoneal macrophages incubated for 5 days by Giemsa staining based assay. The conditions noted are these: MHOM/MA(BE)/67, Peritoneal macrophage, 120 h. In kind it is functional, organism-based.

For orientation: IC50 means the midpoint of a concentration-inhibition curve. A low value points to greater potency in that assay. In the case of `O=[N+]([O-])c1cn2c(n1)OC(COc1ccc(OC(F)(F)F)cc1)CC2` (stereo unspecified), the IC50 was 47 nM. This counts as double-digit nanomolar.
